Key:
[1] = molecular target: human CypA (Homo sapiens, UniProt P62937); conditions: read-out: In vitro inhibition human CypA IC50; protease-coupled PPIase assay
[2] = test system: NFAT; experiment: NFAT reporter gene assay (luciferase) in Jurkat cells; assay type: cell-based; conditions: luciferase-coupled NFAT reporter gene assay

Chains of the proteins cited; added tags and fusions are not shown.
UniProt P62937, whole entry: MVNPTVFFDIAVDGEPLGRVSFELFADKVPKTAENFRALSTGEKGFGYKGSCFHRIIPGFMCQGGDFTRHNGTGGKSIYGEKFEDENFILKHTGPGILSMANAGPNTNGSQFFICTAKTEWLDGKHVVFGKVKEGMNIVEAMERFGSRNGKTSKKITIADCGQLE

## CO[C@H]1C[C@@H](C)C/C(C)=C/[C@@H](CC=CC(=O)NC(C)(C)C)C(=O)C[C@H](O)[C@@H](C)[C@@H](/C(C)=C/[C@@H]2CC[C@@H](O)[C@H](OC)C2)OC(=O)[C@@H]2CCCCN2C(=O)C(=O)[C@]2(O)O[C@H]1[C@@H](OC)C[C@H]2C
[1]
  IC50: 10.2 nM
[2]
  In vitro inhibition NFAT reporter gene assay IC50: no
